Reference: PubChem BioAssay AID623877 (Johns Hopkins Ion Channel Center, 2012)
This is a selection; strong and weak results do not stand in their true shares. Calls of active or inactive are those of the source.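 Rule for the calls: active = fluorescence-ratio B-score plate-corrected deviation score at least 3 library SD below zero, with starting fluorescence score within 5 deviations; inactive = the rest.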

Amino acid sequences for entries named in this document (tags omitted).
UniProt Q8BHY3, whole entry: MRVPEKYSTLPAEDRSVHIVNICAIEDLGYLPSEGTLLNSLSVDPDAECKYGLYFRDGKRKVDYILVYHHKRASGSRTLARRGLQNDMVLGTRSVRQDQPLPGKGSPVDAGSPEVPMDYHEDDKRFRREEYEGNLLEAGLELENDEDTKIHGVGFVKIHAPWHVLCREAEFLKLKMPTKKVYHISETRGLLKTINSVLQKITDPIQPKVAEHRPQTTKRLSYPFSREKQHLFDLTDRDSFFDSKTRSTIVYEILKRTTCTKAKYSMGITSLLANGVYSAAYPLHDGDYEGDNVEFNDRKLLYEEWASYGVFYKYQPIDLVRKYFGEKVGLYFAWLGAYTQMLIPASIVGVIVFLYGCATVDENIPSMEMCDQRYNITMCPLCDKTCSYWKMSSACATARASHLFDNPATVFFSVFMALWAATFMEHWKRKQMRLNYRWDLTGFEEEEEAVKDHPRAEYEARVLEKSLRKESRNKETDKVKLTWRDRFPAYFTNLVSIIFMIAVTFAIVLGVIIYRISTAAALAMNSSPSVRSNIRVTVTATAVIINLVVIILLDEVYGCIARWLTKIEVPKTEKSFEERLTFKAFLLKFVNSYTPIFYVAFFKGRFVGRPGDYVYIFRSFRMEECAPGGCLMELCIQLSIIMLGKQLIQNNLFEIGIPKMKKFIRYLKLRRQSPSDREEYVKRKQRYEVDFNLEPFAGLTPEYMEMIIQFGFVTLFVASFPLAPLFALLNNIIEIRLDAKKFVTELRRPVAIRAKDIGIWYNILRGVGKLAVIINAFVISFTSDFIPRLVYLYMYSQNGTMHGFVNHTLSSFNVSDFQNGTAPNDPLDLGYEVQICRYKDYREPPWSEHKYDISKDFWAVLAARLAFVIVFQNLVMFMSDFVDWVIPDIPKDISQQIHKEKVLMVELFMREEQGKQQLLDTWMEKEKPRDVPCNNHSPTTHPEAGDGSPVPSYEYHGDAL

Target: Anoctamin-1 (Mus musculus) (UniProt Q8BHY3)
Assay: TMEM16A chloride channel activators or potentiators, primary screen, cell-based, HTS (AID 623877)
Conditions: HEK293 TMEM16A/YFP-H148Q/I152L, iodide quench fluorescence, at 10 µM

SMILES	outcome
Cc1c([N+](=O)[O-])cc([N+](=O)[O-])c(Br)c1[N+](=O)[O-]	inactive
COC(=O)c1cc2c(s1)N=C(c1ccccc1)N(C)P2(=O)N1CCOCC1 (configuration not stated)	inactive
Cc1ccc(OP(=O)(Nc2ccccn2)Oc2ccc(C)cc2)cc1	inactive
CC(=O)NC(SC(=S)N(CC(C)C)CC(C)C)C(Cl)(Cl)Cl (configuration not stated)	inactive
O=C(OC1CN2CCC1CC2)c1ccccc1 (configuration not stated)	inactive
CCN(CC)CCCOC(=O)C(O)(c1ccccc1)C1CCCCC1 (configuration not stated)	inactive
CCC(=O)N1C2C3N(C(=O)CC)C1C1N(C(=O)CC)C(C(N1C(=O)CC)N3C(=O)CC)N2C(=O)CC	inactive
CCOP(=O)(Nc1ccccc1)OCC	inactive
Cc1cc(SC(NC(=O)c2ccc(F)cc2)C(Cl)(Cl)Cl)ncn1 (configuration not stated)	inactive
Cc1ccc(NP(=O)(Oc2ccccc2F)Oc2ccccc2F)nc1	inactive
CN(C(=O)Cc1ccc(Cl)c(Cl)c1)[C@H]1CCCC[C@@H]1N1CCCC1	inactive
COc1ccccc1OP(C)(=O)Nc1ccc(C)c(C)c1 (configuration not stated)	inactive
COc1ccc(OP(C)(=O)Nc2ccccc2Br)cc1 (configuration not stated)	inactive
O=C(O)c1ccccc1[As](=O)(O)O	inactive
CC(=O)Nc1ccc([As](=O)(O)O)cc1	inactive
CCCC1OP(N)(=O)OCC1CC (configuration not stated)	inactive
O=C1C(O)=C([N+](=O)[O-])C(=O)C(O)=C1[N+](=O)[O-]	inactive
Cc1cc(C)cc(OP(C)(=O)Nc2cccc(C(F)(F)F)c2)c1 (configuration not stated)	inactive
O=P(Nc1nc2ccc(Cl)cc2s1)(c1ccccc1)c1ccccc1	inactive

SMILES	outcome
CCN(N=Nc1nonc1N)c1nonc1N	inactive
Nc1cccc2ccc([As](=O)(O)O)cc12	inactive
CP(=O)(OCCOc1ccccc1)OCCOc1ccccc1	inactive
CP(=O)(Nc1ccc(Cl)cc1Cl)Oc1ccccc1 (configuration not stated)	inactive
CCCCCCCCCCCCCCCC1C[N+](C)(C)CCOP(C)(=O)O1 (configuration not stated)	inactive
COc1ccc(OP(C)(=O)Nc2ccccn2)cc1 (configuration not stated)	inactive
COc1ccccc1OP(=O)(Nc1ccc(C)cn1)Oc1ccccc1OC	inactive
Cc1ccc(OP(=O)(Nc2nccs2)Oc2ccc(C)cc2)cc1	inactive
Clc1ccc(Cl)c(NC2=NCC(CBr)S2)c1 (configuration not stated)	inactive
CN(C)CCOC(=O)C(O)(c1ccccc1)C1CCCC1 (configuration not stated)	inactive
CN1CCCC(OC(=O)C(c2ccccc2)c2ccccc2)C1 (configuration not stated)	inactive
NC(=O)c1cc([N+](=O)[O-])cc([N+](=O)[O-])c1N	inactive
COc1ccccc1OP(C)(=O)Nc1ccc(Br)cc1 (configuration not stated)	inactive
CN(C(=O)Cc1ccc(Cl)c(Cl)c1)[C@H]1CCCC[C@H]1N1CCCC1	inactive
Cc1ccc(N/C(=N/P(=O)(N2CCOCC2)N2CCOCC2)N2CCOCC2)cc1	inactive
CP(=O)(Nc1ccccn1)Oc1ccccc1 (configuration not stated)	inactive
COc1ccccc1OP(C)(=O)Nc1ccc(C)cc1C (configuration not stated)	inactive
CCc1ccc(OP(C)(=O)O)cc1	inactive
CC(C)CC(=O)NC(Sc1ccc(Cl)cc1)C(Cl)(Cl)Cl (configuration not stated)	inactive

SMILES	outcome
O=[N+]([O-])c1cc([N+](=O)[O-])c(Nc2ccccn2)c([N+](=O)[O-])c1	inactive
Cc1c(NP(C)(=O)Oc2ccc(C(C)C)cc2)c(=O)n(-c2ccccc2)n1C (configuration not stated)	inactive
Nc1cc(N)c2nonc2c1[N+](=O)[O-]	inactive
Oc1ccccc1CNc1ccccn1	inactive
O=C(NC(Sc1ccncn1)C(Cl)(Cl)Cl)c1ccccc1 (configuration not stated)	inactive
COc1ccccc1OP(C)(=O)Nc1c(C)n(C)n(-c2ccccc2)c1=O (configuration not stated)	inactive
O=[N+]([O-])c1cccc2n[nH]nc12	inactive
CC(=O)N1C2C3N(C(C)=O)C1C1N(C(C)=O)C(C(N1C(C)=O)N3C(C)=O)N2C(C)=O	inactive
O=C(OCCCN1CCCC1)C(O)(c1ccccc1)C1CCCCC1 (configuration not stated)	inactive
Cc1ccc(NP(=O)(Oc2ccccc2)Oc2ccccc2)nc1	inactive
CP(=O)(Oc1ccccc1)N1CCOC1=O (configuration not stated)	inactive
CCc1nc2c(n1)c1c(non1O)c1c2no[n+]1[O-]	inactive
O=[N+]([O-])c1cc([N+](=O)[O-])c(CCNc2ccccc2)c([N+](=O)[O-])c1	inactive
CCc1ccc(OP(C)(=O)Nc2cccnc2)cc1 (configuration not stated)	inactive
CCN(CC)CC(O)COC(=O)C(O)(c1ccccc1)C1CCCCC1 (configuration not stated)	inactive
COc1ccc(C2=NCC(CBr)S2)cc1 (configuration not stated)	inactive
COc1ccc(OP(C)(=O)Nc2ccc(Br)cc2)cc1 (configuration not stated)	inactive
CN(C)C(=O)c1c([N+](=O)[O-])cc([N+](=O)[O-])cc1[N+](=O)[O-]	inactive
CC(C)=N/N=C(\N)N[N+](=O)[O-]	inactive
